Results as given in ChEMBL document CHEMBL4808235, “Identification of 6-hydroxy-5-phenyl sulfonylpyrimidin-4(1H)-one APJ receptor agonists” (Bioorg Med Chem Lett, 2021).

Target: T1, Apelin receptor (Homo sapiens, UniProt P35414)
T1 sequence (P35414 whole entry): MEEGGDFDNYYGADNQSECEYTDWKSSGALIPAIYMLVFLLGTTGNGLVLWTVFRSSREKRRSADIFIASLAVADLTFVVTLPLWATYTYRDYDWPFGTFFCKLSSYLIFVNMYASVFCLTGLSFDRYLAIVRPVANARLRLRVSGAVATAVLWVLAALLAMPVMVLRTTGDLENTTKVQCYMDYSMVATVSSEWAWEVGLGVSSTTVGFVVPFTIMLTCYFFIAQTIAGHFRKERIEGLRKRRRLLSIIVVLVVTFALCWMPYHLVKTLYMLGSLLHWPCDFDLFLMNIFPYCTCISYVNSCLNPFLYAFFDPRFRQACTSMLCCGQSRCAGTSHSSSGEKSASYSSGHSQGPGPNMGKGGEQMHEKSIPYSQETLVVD
Assay: Agonist activity at human APJ receptor assessed as effect on cAMP accumulation by cAMP-Glo assay
Type: functional

Structure (SMILES): COc1cccc(OC)c1-n1c(CCC(C)C)nc(=O)c(S(=O)(=O)c2ccc(-c3ccc(F)nc3)cc2)c1O
- EC50: 50 pM
